Patent US12296048B2, “Polymer particles for neutrophil injury” (THE REGENTS OF THE UNIVERSITY OF MICHIGAN, priority 2019, dated 2025)

Legend:
human RBCs = assay: Hemolysis assay
[1] = test system: P. aeruginosa infected mice; assay: P. aeruginosa lung infection mouse model of ALI/ARDS; conditions: in vivo

salicylate polyanhydride ester that hydrolyzes to salicylic acid [Poly-A particles]
induce hemolysis when placed in human blood (human RBCs): do not | impact on host's ability to clear a primary lung infection [1]: do not negatively impact
